## AlphaSeq binding of Ab-14 light chain variants to a spike HR2 peptide

Reference: Li et al. 2023, doi:10.1038/s41467-023-39022-2. File: FLAb, binding data.

Binding partner: SARS-CoV-2 spike HR2 peptide, sequence PDVDLGDISGINAS.

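The parent was found by panning a naive human phage display library on the peptide. This is the validation round: designs drawn from the data on random variants, tested in the same kind of assay. Group labels follow the data file (Ctrl: baseline library sampled from a position-specific scoring matrix, with some repeated check sequences; En: ensemble of fine-tuned language models; GP: Gaussian process model; HC: hill climbing; Gen: genetic algorithm; Gibbs: Gibbs sampling; a sequence that several methods proposed may carry one label only). Affinity was read by AlphaSeq, a pooled yeast mating assay with surface-displayed partners. Pairs that bind mate more often; barcode pairs of the diploids are counted by sequencing. Scores were corrected for input abundance and mapped to Kd with protein pairs of known affinity run in the same pool. The assay was run in six technical replicates.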

Each scFv is VH, a (GGGGS)3 linker, VL, as in the parent Ab-14, and differs from it in the CDRs of the light chain only.
VH: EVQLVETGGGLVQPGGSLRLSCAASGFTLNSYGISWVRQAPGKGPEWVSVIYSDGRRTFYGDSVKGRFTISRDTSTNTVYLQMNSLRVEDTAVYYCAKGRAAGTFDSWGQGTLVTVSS
VL: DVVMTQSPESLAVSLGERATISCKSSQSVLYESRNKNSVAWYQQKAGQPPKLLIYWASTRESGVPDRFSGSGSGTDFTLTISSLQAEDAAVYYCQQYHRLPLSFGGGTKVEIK

The parent's light chain CDRs are KSSQSVLYESRNKNSVA, WASTRES, QQYHRLPLS; each variant's own CDRs replace them letter for letter.
Variants here have more than six changes.
The Kd shown is the geometric mean over detected replicates; a lower Kd is a better binder.
Where no diploid with the target was found in any replicate, the entry reads "nd": below detection, most likely a poor binder, though not proof of it.
The list is sorted by this average, lowest first, undetected variants last.
Nonspecific signal, from three strains lacking the peptide, appeared in 4% of pairings of all light chain designs, centred on 430 nM (5% of these signals below 38 nM); values are not corrected for it. Also given: how often the same scFv was detected with the empty control strains.

- KLMEQALYESRNKNSVA | QASTREV | QQYHRLPLS [GP_Gibbs] -> 520 pM (6 of 6 replicates; controls 0 of 18)
- KWSFLQGGESRNKNSVA | DASTRES | QQYHRLPLS [GP_Gibbs] -> 540 pM (6 of 6 replicates; controls 0 of 18)
- HLSDTVMGGSYYRNSVA | QESTRAD | QQYHRLPLS [En_HC] -> 670 pM (6 of 6 replicates; controls 1 of 18)
- KVSQAVPYEQRNKNNVA | DGSTRES | QQYHRLPLS [GP_Gibbs] -> 730 pM (6 of 6 replicates; controls 1 of 18)
- HMKDEPGLGPQTYSSVA | HAEIREP | QQYYRLPLM [En_Gibbs] -> 970 pM (6 of 6 replicates; controls 0 of 18)
- KMMQSQLYEDRAKNAVA | HASQRES | QQYHRLPLS [GP_Gibbs] -> 1.3 nM (6 of 6 replicates; controls 1 of 18)
- NISHFMDVTAKNINNVA | EMTMREQ | QQYHHLPLS [En_Gen] -> 1.3 nM (6 of 6 replicates; controls 0 of 18)
- TISMLMNHMTRNSNNVA | NMDMRED | QQYDRLPLS [En_Gen] -> 1.4 nM (6 of 6 replicates; controls 1 of 18)
- KMPQSWWYESRNKQSVA | NASERES | QQYHRLPLS [GP_Gibbs] -> 1.4 nM (6 of 6 replicates; controls 1 of 18)
- MISQLFMYGSRNPNSVA | QASTRES | QQYDRLPLI [En_HC] -> 1.4 nM (6 of 6 replicates; controls 0 of 18)
- QLGMTLKELSKVKNNVA | EMTTRLN | QQYYRLPLS [En_Gen] -> 1.5 nM (6 of 6 replicates; controls 0 of 18)
- KLQMSEEYESRNKNSVA | MASTRCD | QQYHRLPLS [GP_Gibbs] -> 1.6 nM (6 of 6 replicates; controls 1 of 18)
- KISYLDYRGSQGHNNIA | EGSQRAE | QQYIRLPLN [En_Gibbs] -> 1.8 nM (6 of 6 replicates; controls 2 of 18)
- KIGMTLNTLMHQKNNVA | DLVMREN | QQYHRLPLS [En_Gen] -> 2.6 nM (6 of 6 replicates; controls 1 of 18)
- KFKELFNMWARNHGNVA | DADERNV | QQYSRLPIS [En_Gibbs] -> 2.7 nM (6 of 6 replicates; controls 0 of 18)
- KVSQEQDYQSRNINSVA | DASLRES | QQYHRLPLS [GP_Gibbs] -> 2.8 nM (6 of 6 replicates; controls 2 of 18)
- ALRGVGYDEQVKHSAIA | DGEHVNN | QQYSMLPLS [En_Gibbs] -> 2.8 nM (6 of 6 replicates; controls 1 of 18)
- KLYQSVGYMSTNKNSVA | HASTRES | QQYDRLPLS [Ctrl] -> 3.0 nM (6 of 6 replicates; controls 1 of 18)
- SLMQVGGYESNNRNSIA | DLRTRES | QQYHRLPLS [En_HC] -> 4.1 nM (6 of 6 replicates; controls 2 of 18)
- KIGMTLNQLMHKKNNVA | DLVTREM | QQYARLPLS [En_Gen] -> 4.1 nM (6 of 6 replicates; controls 1 of 18)
- KIRVQQYMQSEMESNIA | GTSVRHS | QQYFHLPLT [En_Gibbs] -> 4.4 nM (6 of 6 replicates; controls 0 of 18)
- HVNHEQLDYKNYENNIA | HVSQRLY | QQYSHLPLS [En_Gibbs] -> 4.4 nM (6 of 6 replicates; controls 5 of 18)
- TISQMFHGESRNRNSVA | QASTRES | QSYDRLPLS [En_HC] -> 5.2 nM (6 of 6 replicates; controls 0 of 18)
- KVMQSYLGEMRNCNSVA | NASTRES | QQYHRLPLS [GP_Gibbs] -> 5.2 nM (6 of 6 replicates; controls 2 of 18)
- KISQMSTIESIAHNSVA | QTSTRES | QQYDRLPLS [En_HC] -> 5.7 nM (6 of 6 replicates; controls 4 of 18)
- KLSMTHGMELINRNSVA | ELVTRMS | QQYNRLPLS [En_Gen] -> 8.1 nM (6 of 6 replicates; controls 1 of 18)
- NLKEMEGDNQTKHGNIA | SVDQTMT | QQYFRLPLA [En_Gibbs] -> 8.5 nM (6 of 6 replicates; controls 2 of 18)
- KMSMSVLYEDRHGNSVA | NASTRFM | QQYHRLPLS [GP_Gibbs] -> 8.6 nM (6 of 6 replicates; controls 2 of 18)
- KIQQTHVGNEKKMESIA | QGDQRCQ | QSYDRLPLS [En_Gibbs] -> 10 nM (6 of 6 replicates; controls 0 of 18)
- NLSIQHQHQNMSANAVA | QTEIREV | QQYAQLPLA [En_Gibbs] -> 12 nM (6 of 6 replicates; controls 0 of 18)
- MVYQAAMMGTSTRNSIA | NAQMRPD | QQYHRLPLM [En_Gen] -> 14 nM (6 of 6 replicates; controls 0 of 18)
- MISQLYNMGSFAINSVA | QASTRNA | QQYDRLPLM [En_Gen] -> 15 nM (6 of 6 replicates; controls 1 of 18)
- KISQTFNVGTKMKNSLA | EMSTREF | QDYHRLPLS [En_HC] -> 16 nM (6 of 6 replicates; controls 0 of 18)
- SLTAHVEEAKGAENSVA | EAVMLES | QQYHQLPLM [En_Gibbs] -> 17 nM (6 of 6 replicates; controls 0 of 18)
- KITLIFSNKGNSRHSVA | NAETLAH | QQYYRLPFM [En_Gibbs] -> 17 nM (3 of 6 replicates; controls 0 of 18)
- TISQSAMMESHNKNSVA | DLNLRGS | QQYDRLPLS [En_HC] -> 23 nM (6 of 6 replicates; controls 2 of 18)
- MISQLFMYGSRNYNSIA | QAEQREK | QQYDRLPLE [En_HC] -> 25 nM (6 of 6 replicates; controls 1 of 18)
- MVSQLMLWGLHAKYSIA | EAQTRLN | QQYDRLPLI [En_Gen] -> 46 nM (3 of 6 replicates; controls 1 of 18)
- QLLMATMQGQYNRNSVA | HAVTRND | QSYHRLPLS [En_HC] -> 55 nM (6 of 6 replicates; controls 0 of 18)
- MFSQMTGLGMKAKNSVA | QASMRFD | QQYHRLPLI [En_Gen] -> 60 nM (6 of 6 replicates; controls 2 of 18)
- MISQLTNMGQFAINSVA | QASLRCN | QQYDRLPLM [En_Gen] -> 61 nM (4 of 6 replicates; controls 0 of 18)
- TIGPMLMTESHQKNNVA | GMQTRER | QQYHRLPLS [En_HC] -> 73 nM (6 of 6 replicates; controls 2 of 18)
- MLSQMWALGSKVKNSVA | QASMRFN | QQYERLPLI [En_Gen] -> 95 nM (2 of 6 replicates; controls 0 of 18)
- RLTQQMYGFNIHANAIA | SGKERQW | QQYARLPLS [En_Gibbs] -> 160 nM (5 of 6 replicates; controls 0 of 18)
- SLRMMPPVGYAYDENVA | NASQLFS | QQYFMLPLT [En_Gibbs] -> 300 nM (5 of 6 replicates; controls 0 of 18)
- KITQIFFPYGNSWHSVA | NANTLAH | QQYYMLPLM [En_Gibbs] -> nd (0 of 6 replicates; controls 0 of 18)
- IVSQLMLWGLSAKNSIA | EAVTRLN | QQYDRLPLI [En_Gen] -> nd (0 of 6 replicates; controls 0 of 18)

The parent sequence was in this pool as ten entries: three were never detected, three once, and four in most replicates, with averages from 2.2 nM to 240 nM.
The authors averaged sequences with at least three values out of six and counted those with two or fewer as poor binders.
Values of this round are not directly comparable with the first-round values of the same sequences.